Data on one molecule can be found in patent US11505521B2, “Crystalline epinephrine malonate salt” (Biothea Pharma, Inc., priority 2018, dated 2022).

For this data set the following is noted: 20 mg in 20 mL water, 25° C. As to the method:
The tests were conducted using Sartorius balances (Model SQP) and a pH meter (Brand: INESA, Model No. PHS-3E). 20 mg of the sample was weighed and transferred into a 20 mL volumetric flask with the remainder of the volume comprising water. The solution was mixed. The pH meter was calibrated with pH 4.0 and pH 6.8 standard buffer solutions at 25° C.

In turn, `CNC[C@H](O)c1ccc(O)c(O)c1` [epinephrine bitartrate] came in with a pH of 3.75.
